Reference: patent US20260256822A1, “ENTRY-MODULATING AGENTS AND USES THEREFOR” (priority 2022, published 2026)

The chains behind the UniProt entries cited, without tags or fusion partners. Residues count along the entry.
UniProt Q8IFM8, 29-362: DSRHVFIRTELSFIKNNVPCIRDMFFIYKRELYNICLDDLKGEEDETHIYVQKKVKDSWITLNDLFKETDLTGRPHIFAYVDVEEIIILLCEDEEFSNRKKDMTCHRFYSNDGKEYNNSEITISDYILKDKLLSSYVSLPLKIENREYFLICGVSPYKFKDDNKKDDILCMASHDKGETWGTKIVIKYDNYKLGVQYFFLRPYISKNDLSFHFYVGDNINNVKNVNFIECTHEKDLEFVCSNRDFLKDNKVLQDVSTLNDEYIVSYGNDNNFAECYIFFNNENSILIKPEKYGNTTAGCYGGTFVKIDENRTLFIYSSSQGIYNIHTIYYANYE

Target: PfCyRPA (Plasmodium falciparum, UniProt Q8IFM8)

For Selameticin, the Kd was 1200 ± 202 nM.

With Epimametcin the Kd was 3040 ± 506 nM.
